# Tests used:
# The chains behind the UniProt entries cited, without tags or fusion partners. Residues count along the entry.
# UniProt P0ACJ8, 2-210, added parts left off: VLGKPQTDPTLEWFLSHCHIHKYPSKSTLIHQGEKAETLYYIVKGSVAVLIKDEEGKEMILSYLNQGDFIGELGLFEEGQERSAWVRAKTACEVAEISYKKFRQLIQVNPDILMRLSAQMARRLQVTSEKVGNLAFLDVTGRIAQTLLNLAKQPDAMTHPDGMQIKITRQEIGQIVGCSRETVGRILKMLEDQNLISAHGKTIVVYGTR
# CAP-His6 = CAP-His6 (Escherichia coli, UniProt P0ACJ8); settings: read-out: equilibrium dissociation constant (KD); 50 nM probe titrated with 0-3 μM CAP-His6, buffer C, 25° C.
# (CAP-His6)-DNA^F complex = (CAP-His6)-DNA^F complex (Escherichia coli, UniProt P0ACJ8); settings: read-out: equilibrium dissociation constant (KD); 5 nM DNA^F and 50 nM CAP-His6 titrated with 0-3.2 μM probe, buffer C, 25° C.
Substance,Kd (CAP-His6) [nM],Kd ((CAP-His6)-DNA^F complex) [nM]
(Ni^2+-NTA)2-Cy3,1000,900
(Ni^2+-NTA)2-Cy5,400,300
